The target in this experiment is T1, IGF-1 receptor (Homo sapiens, UniProt P08069).
T1 construct: 30-50 μg of human placental membrane protein was incubated; from tissue; host or cells: human placental membranes
Kind of experiment: IGF-1 radioreceptor assay (displacement of [125I] ligand from human placental membranes). Type of experiment: binding. As to the method: 67:194-197. Briefly, 30-50 μg of human placental membrane protein was incubated with approximately 10 femtomoles of [^125 I] ligand in a final volume of 500 μl of 100 mM HEPES, pH 7.8, 120 mM NaCl, 5 mM KCl, 1.2 mM MgSO4, 8 mM glucose and 0.25% BSA for 24 hours at 4° C. Membranes were collected on glass fiber filters pre-treated with 0.1% polyethyleneimine by using a cell harvester (Skatron, Lier, Norway). Binding data were analyzed by fitting displacement curves to a four parameter model employing Prefit/Allfit® software for the determination of EC50 values.
For orientation: Loss of bound radioactivity is the signal in a displacement assay; it reports binding, not function.

IGF-1 [BCAD (IGF-1)]: the “RATIO = IGF1 POTENCY ÷ INSULIN POTENCY” value (IGF-1 receptor vs insulin receptor selectivity) stood at 83. For the same substance, the “% IGF-1 POTENCY” value (relative to BCAD (IGF-1) = 100, human placental membrane, 24 hours at 4° C., from EC50 values) stood at 100%.

Source of the values: patent US5622932A, “IGF-1 superagonists” (Eli Lilly and Company, priority 1995, dated 1997).
